Experimental data from ChEMBL document CHEMBL6153072, “Metabolically Stable Adenylation Inhibitors of Biotin Protein Ligase as Antibacterial Agents” (J Med Chem, 2025).

Molecular target: T1, Biotin--[acetyl-CoA-carboxylase] ligase (Mycobacterium tuberculosis (strain ATCC 25618 / H37Rv), UniProt I6YFP0)
T1 sequence (I6YFP0 whole entry): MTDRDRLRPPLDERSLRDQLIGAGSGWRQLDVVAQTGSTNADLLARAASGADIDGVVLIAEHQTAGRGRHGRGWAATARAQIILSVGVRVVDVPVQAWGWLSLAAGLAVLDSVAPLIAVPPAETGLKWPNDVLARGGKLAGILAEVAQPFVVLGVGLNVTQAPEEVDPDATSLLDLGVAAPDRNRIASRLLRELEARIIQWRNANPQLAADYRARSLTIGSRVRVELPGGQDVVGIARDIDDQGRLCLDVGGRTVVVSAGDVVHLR
Test: Binding affinity to Mycobacterium tuberculosis BPL assessed as dissociation constant by isothermal titration calorimetry

Nc1ncnc2c1ncn2[C@@H]1O[C@H](CNS(=O)(=O)[N-]C(=O)NCCC[C@@H]2SC[C@@H]3NC(=O)N[C@@H]32)[C@@H](O)[C@H]1O.[Na+] was tested, and the Kd was 7 nM.
